# Data: US6015808A, “Synthesis of pharmaceutical compositions with lactams and β-lactams/oxo thia azabicyclo compounds” (priority 1995, dated 2000)
# “Also recorded” adds a separate entry of the source.
# How the values were obtained:
# oral absorption = assay type: in vivo
substance,measurement,setting,value
hamycin,"solubility in methanol, alcohol, other solvents","methanol, alcohols, ethyl acetate, other solvents",soluble in alcohol
same,solubility in water,water,insoluble in water; also recorded: not water soluble
same,oral absorption,oral absorption,poorly absorbed orally
